Test results: patent US8241562B1, “Enhanced toxic cloud knockdown spray system for decontamination applications” (dated 2012)

What was measured:
[1] = 25° C.; cited from earlier work
[2] = Time to dissolve in Part A; details: after addition to Part A

Row | Molecule | soluble in water [1] | time to dissolve [2]
1 | CC(=O)N(CCN(C(C)=O)C(C)=O)C(C)=O | 0.1% | 
2 | sodium percarbonate [milled sodium percarbonate] |  | about 2 minutes
3 | sodium percarbonate [sodium percarbonate] |  | approximately 30 minutes
